Here are results for two molecules from patent US20110098180A1, “Herbicide-Resistant Plants, And Polynucleotides And Methods For Providing Same” (United States Department of Agriculture, priority 2002, published 2011).

By UniProt entry, the sequences of proteins in these tests, tags left out. Residues count along the entry.
UniProt Q66PY0, 1-580 R304S: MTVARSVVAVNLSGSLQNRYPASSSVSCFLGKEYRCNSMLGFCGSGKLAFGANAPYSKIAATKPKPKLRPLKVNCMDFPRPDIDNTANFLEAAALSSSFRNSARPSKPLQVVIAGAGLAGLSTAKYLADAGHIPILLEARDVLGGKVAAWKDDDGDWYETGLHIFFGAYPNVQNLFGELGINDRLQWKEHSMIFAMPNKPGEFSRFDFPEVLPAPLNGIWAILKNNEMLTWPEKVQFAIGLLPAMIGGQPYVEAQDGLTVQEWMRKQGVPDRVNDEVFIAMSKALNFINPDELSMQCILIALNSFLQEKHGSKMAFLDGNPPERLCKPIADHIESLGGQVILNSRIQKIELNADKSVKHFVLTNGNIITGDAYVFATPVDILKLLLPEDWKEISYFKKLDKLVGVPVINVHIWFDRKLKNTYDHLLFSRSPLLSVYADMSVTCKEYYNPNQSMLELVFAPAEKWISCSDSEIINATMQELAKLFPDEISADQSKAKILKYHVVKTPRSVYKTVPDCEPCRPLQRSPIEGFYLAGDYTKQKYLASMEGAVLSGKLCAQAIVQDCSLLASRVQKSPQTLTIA
UniProt Q66PY0, 1-580: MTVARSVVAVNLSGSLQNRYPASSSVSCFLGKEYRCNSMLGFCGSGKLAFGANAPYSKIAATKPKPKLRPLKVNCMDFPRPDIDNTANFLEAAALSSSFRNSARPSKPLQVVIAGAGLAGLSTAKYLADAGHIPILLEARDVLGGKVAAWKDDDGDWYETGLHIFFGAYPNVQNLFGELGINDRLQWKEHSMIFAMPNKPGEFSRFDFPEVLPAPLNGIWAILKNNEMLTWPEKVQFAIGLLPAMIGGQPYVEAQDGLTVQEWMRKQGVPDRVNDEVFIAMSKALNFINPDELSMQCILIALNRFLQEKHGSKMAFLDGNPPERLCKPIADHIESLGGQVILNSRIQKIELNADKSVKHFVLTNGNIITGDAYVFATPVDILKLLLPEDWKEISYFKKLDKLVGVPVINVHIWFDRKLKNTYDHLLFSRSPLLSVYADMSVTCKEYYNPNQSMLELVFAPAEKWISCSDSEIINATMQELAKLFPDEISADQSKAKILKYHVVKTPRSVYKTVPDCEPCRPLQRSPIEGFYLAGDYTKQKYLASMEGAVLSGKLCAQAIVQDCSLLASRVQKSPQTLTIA
UniProt Q66PY0, 77-580: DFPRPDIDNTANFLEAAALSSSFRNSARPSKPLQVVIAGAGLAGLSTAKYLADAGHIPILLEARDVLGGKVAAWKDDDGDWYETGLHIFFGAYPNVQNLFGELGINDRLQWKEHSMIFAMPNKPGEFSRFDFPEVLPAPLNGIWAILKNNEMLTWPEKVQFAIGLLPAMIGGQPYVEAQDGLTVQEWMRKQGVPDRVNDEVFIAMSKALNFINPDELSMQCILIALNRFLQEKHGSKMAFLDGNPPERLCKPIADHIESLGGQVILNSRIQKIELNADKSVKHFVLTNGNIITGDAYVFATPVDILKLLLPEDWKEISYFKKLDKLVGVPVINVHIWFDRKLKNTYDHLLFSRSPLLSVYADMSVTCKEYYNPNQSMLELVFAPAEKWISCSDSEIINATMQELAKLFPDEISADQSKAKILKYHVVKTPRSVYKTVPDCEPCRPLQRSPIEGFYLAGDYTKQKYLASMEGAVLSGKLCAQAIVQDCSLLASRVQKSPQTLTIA

Test [1] addresses hydrilla PDS Arg^304 → Serine (Hydrilla verticillata, UniProt Q66PY0, R304S). Nature of the test: Cross resistance to bleaching herbicides, in vitro PDS inhibition, non-His-tagged (Table 2). The settings on record: Serine at 304, construct in frame with LacZalpha-ccdB, read-out: I50. It is filed as biochemical. As to the method:
(§1) The expression constructs in Table 2 were derived from an original clone of the susceptible PDS gene from Hydrilla and then the Arg^304 was mutated to the listed amino acid. Expression was under the control of the lac promoter but in frame with the initiation codon of the LacZalpha-ccdB gene in the pCR4-TOPO vector (Invitrogen Inc., CA, Cat. #K4575-01).
(§2) All mutagenesis was performed, unless stated otherwise, using the TOPO-vector containing the wildtype (H4) PDS-sequence, which was extracted from an overnight culture with the Qiagen Plasmid Prep Kit as described above. The amount of the extracted plasmid was diluted to 10 ng/μl and used as template in a mutagenesis-procedure using the QuikChange Site-directed Mutagenesis Kit (Stratagene, Calif., #200518). The design of the mutagenesis-primers was conducted according to the manufacturers protocol to enable the specific change of Arg^304-codon to code for the desired amino acid. Primers (purchased from MWG-Biotech) and their introduced amino acid change are listed below with the changed codon underlined:
(§3) The reactions were performed according to the manufacturers protocol. […] Sequences were assembled and analyzed using Seqman. […]
(§4) Phytoene desaturase activity and its inhibition by herbicides was determined using an in vitro system using components derived from the in vivo production of phytoene and phytoene desaturase proteins. […]

For test [2], the target named is hydrilla PDS position 304 Arginine (wildtype) (Hydrilla verticillata, UniProt Q66PY0). The description is as above. It is filed as biochemical. The settings on record: Arginine at 304 (reference). As to the method: as §1, §2, §3, §4
For test [3], the target named is hydrilla PDS position 304 Arginine, His-tagged (Hydrilla verticillata, UniProt Q66PY0). Nature of the test: Cross-resistance testing, His-tagged column-purified PDS (Table 2A). It is filed as biochemical. The following applies: Arginine at 304 (reference), 30 min. The text has this:
The alternative approach utilized His-tagging and column purification of the mutant PDS protins.
In order to express pds in bacteria, deletion clones were made for each of the three potential start codons with and without ATG. […] The forward primers used were ORF (5′ […] 3′), ORF-ATG (5′ […] 3′), 3_ORF (5′[…] 3′) and 3_ORF-ATG (5′ […] 3′). The resulting plasmids were named pORF, pORF-ATG (minus ATG codon), p3ORF and p3ORF-ATG. The pds-containing EcoRI-fragments of these plasmids were subcloned into the EcoRI site of pRSETb vector (Invitrogen) for Histidine tagging and bacterial expression. The resulting constructs were pHy4SET, pHy4SET-ATG (minus ATG), p3ORFSET and p3ORFSET-ATG. […]
All pRSET derived constructs were transformed into BL21(DE3)pLysS cells (Invitrogen), induced with IPTG for protein expression, and the His tag overproduced proteins analyzed by Western blot using Anti-HisG antibody (Invitrogen, cat. #R940-25). […]
His-tagged, purified proteins prepared as described above were transferred to the assay buffer on a PD10 column (Amersham Bioscience) and the concentration was adjusted to 100 μg/mL. […] I^50 values were calculated from the regressions.

The test system of test [4] is Synechocystis PDS with mutation corresponding to Leu^542→Arg. The following applies: prior work; cited from earlier work.

On to `O=C(Nc1ccc(F)cc1)c1cccc(Oc2cccc(C(F)(F)F)c2)n1` [Piconilafen, Picolinafen], for which the IC50 in test [1] was 2300 nM.
For `CNc1cnn(-c2cccc(C(F)(F)F)c2)c(=O)c1Cl` [Norflurazon], the R/S in test [2] and in test [3] was 1 each time. In addition, the “resistance provided by the mutation” value in test [4] is recorded as “high level of resistance”.
